# Measured values reported in paper PMC5716713 (2017).
# B1: GST-FAK-NT1 [human] / endogenous Akt1 of SW620 cells [human (endogenous in SW620)] (parent complex)
# chain 1: MAAAYLDPNLNHTPNSSTKTHLGTGMERSPGAMERVLKVFHYFESNSEPTTWASIIRHGDATDVRGIIQKIVDSHKVKHVACYGFRLSHLRSEEVHWLHVDMGVSSVREKYELAHPPEEWKYELRI
# chain 2: MSDVAIVKEGWLHKRGEYIKTWRPRYFLLKNDGTFIGYKERPQDVDQREAPLNNFSVAQCQLMKTERPRPNTFIIRCLQWTTVIERTFHVETPEEREEWTTAIQTVADGLKKQEEEEMDFRSGSPSDNSGAEEMEVSLAKPKHRVTMNEFEYLKLLGKGTFGKVILVKEKATGRYYAMKILKKEVIVAKDEVAHTLTENRVLQNSRHPFLTALKYSFQTHDRLCFVMEYANGGELFFHLSRERVFSEDRARFYGAEIVSALDYLHSEKNVVYRDLKLENLMLDKDGHIKITDFGLCKEGIKDGATMKTFCGTPEYLAPEVLEDNDYGRAVDWWGLGVVMYEMMCGRLPFYNQDHEKLFELILMEEIRFPRTLGPEAKSLLSGLLKKDPKQRLGGGSEDAKEIMQHRFFAGIVWQHVYEKKLSPPFKPQVTSETDTRYFDEEFTAQMITITPPDQDDSMECVDSERRPHFPQFSYSASGTA
# Variants of: B1
# Test: GST pull-down, western blot densitometry; n=8-19; parent: 1; read off a plot
row,Variant,ratio to parent
1,chain 1 P117K,~1.3
2,chain 1 P116N,~1
3,chain 1 P116G,~1.4
4,"chain 1 L113A, chain 1 P116C, chain 1 P117G",~2.4
5,chain 1 P116C,~1
6,"chain 1 L113A, chain 1 P116A, chain 1 P117A",~2.1
7,chain 1 P117S,~0.56
8,"chain 1 L113A, chain 1 P116N, chain 1 P117K",~0.92
9,chain 1 L113A,~1.5
